# Test results published in patent publication US12552694B2, “Use of trivalent metals to enhance aquatic pesticide efficacy, surface water, and sediment quality while minimizing risk to aquatic biota” (SePRO Corporation, priority 2022, dated 2026).
# Assay: Example 1: capacity of additives to bind dissolved La and Ce (ICP-OES)
# Format: physicochemical
# Details: test sample: La/Ce stock in 50 mL deionized water with 90-110 mg additive
smiles,measurement,value
OCCN(CCO)CCO,pH,9.5
